Test results as given in patent US9290459B1, “Substituted bicyclic dihydropyrimidinones and their use as inhibitors of neutrophil elastase activity” (Boehringer Ingelheim International GmbH, priority 2013, dated 2016).

Chains of the proteins cited; added tags and fusions are not shown. Residues count along the entry.
UniProt P08246, 30-247: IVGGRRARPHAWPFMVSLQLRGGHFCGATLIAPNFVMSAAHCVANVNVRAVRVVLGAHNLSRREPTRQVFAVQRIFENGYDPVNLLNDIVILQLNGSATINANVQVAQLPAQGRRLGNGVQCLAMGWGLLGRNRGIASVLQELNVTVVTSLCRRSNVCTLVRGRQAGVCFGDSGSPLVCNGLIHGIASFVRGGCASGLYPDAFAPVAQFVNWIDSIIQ

Tests used:
[1] = target: neutrophil elastase in human plasma (Homo sapiens (Human), UniProt P08246); assay: Neutrophil elastase inhibitory activity in human plasma (zymosan-stimulated blood); type: biochemical
[2] = target: Human neutrophil elastase (Homo sapiens (Human), UniProt P08246); assay: Human Neutrophil Elastase Assay; conditions: substrate MeOSuc-Ala-Ala-Pro-Val-AMC 250 μM, pH 7.5
[3] = neutrophil elastase enriched human plasma from zymosan-stimulated blood, read-out: EC50

Row | SMILES | EC50 ([1]; EC50, neutrophil elastase enriched human plasma from zymosan-stimulated blood) | IC50 ([2]; IC50, human neutrophil elastase) | EC50 [1, 3] | IC50 ([2]; human neutrophil elastase)
1 | CN1C(=O)N(c2ccnc(C(F)(F)F)c2)C2=C(C(=O)CC2)C1c1ccc(C#N)cc1S(C)(=O)=O (stereo not drawn) [Example 29, 4-(3-Methyl-2,5-dioxo-1-(2-(trifluoromethyl)pyridin-4-yl)-2,3,4,5,6,7-hexahydro-1H-cyclopenta[d]pyrimidin-4-yl)-3-(methylsulfonyl)benzonitrile] | 1 nM | 4.2 nM |  | 
2 | CNC(=O)N1C(=O)N(c2cccc(C(F)(F)F)c2)C2=C(C(=O)CC2)[C@H]1c1ccc(C#N)cc1 [Example 7.1A, (R)-4-(4-Cyanophenyl)-N-methyl-2,5-dioxo-1-(3-(trifluoromethyl)phenyl)-4,5,6,7-tetrahydro-1H-cyclopenta[d]pyrimidine-3(2H)-carboxamide] |  |  | 2 nM | < 1 nM
3 | N#Cc1ccc([C@H]2C3=C(CCC3=O)N(c3cccc(C(F)(F)F)c3)C(=O)N2C(=O)NCCO)cc1 [Example 7.2B, (S)-4-(4-Cyanophenyl)-N-(2-hydroxyethyl)-2,5-dioxo-1-(3-(trifluoromethyl)phenyl)-4,5,6,7-tetrahydro-1H-cyclopenta[d]pyrimidine-3(2H)-carboxamide] |  |  |  | 550 nM
4 | CNC(=O)N1C(=O)N(c2cccc(C(F)(F)F)c2)C2=C(C(=O)CC2)[C@@H]1c1ccc(C#N)cc1 |  |  |  | 622 nM
5 | CN1C(=O)N(c2cccc(C(F)(F)F)c2)C2=C(C(=O)CC2)C1c1ccc(C#N)cc1 (stereo not drawn) [Example 2, 4-(3-Methyl-2,5-dioxo-1-(3-(trifluoromethyl)phenyl)-2,3,4,5,6,7-hexahydro-1H-cyclopenta[d]pyrimidin-4-yl)benzonitrile] |  |  |  | 6.4 nM
6 | N#Cc1ccc([C@@H]2C3=C(CCC3=O)N(c3cccc(C(F)(F)F)c3)C(=O)N2C(=O)NCCO)cc1 [Example 7.2A, (R)-4-(4-Cyanophenyl)-N-(2-hydroxyethyl)-2,5-dioxo-1-(3-(trifluoromethyl)phenyl)-4,5,6,7-tetrahydro-1H-cyclopenta[d]pyrimidine-3(2H)-carboxamide] |  |  | 1 nM | < 1 nM

Like-named read-outs stand apart in the source and are kept apart here.
